# Tested on: NCI-N87 cells
# Experiment: T-DM1 and heregulin dose matrix cell viability, NCI-N87
# Method: Cells were allowed to adhere 16-20 hours at +37° C., 5% CO2. Cells were stimulated for 4 hours by adding 5 μl of culture media containing recombinant human NRG-1-β1 EGF domain (HRG1) bringing the final HRG1 stimulation concentration to 0, 0.313, 0.625, 1.25, 2.5, 5 or 10 nM. […] All conditions were assayed in biological quadruplicates. Cells were incubated for 72 h at +37° C., 5% CO2. Cell viability was determined by CellTiter-Glo® Luminescent Cell Viability Assay by adding 20 μl of reconstituted CellTiter-Glo reagent per well, incubating plated for 10 minutes at RT in an orbital shaker and reading the luminescence signal using Biotek™ Synergy H1 Hybrid Reader.
substance,measurement,setting,value
ado-trastuzumab emtansine [T-DM1],cell viability,"HRG 1.25 nM, T-DM1 0.123457 μg/ml, with MM-111 1 μM, 72 h",43.11 % of control
same,cell viability,"HRG 1.25 nM, T-DM1 0.123457 μg/ml, without MM-111, 72 h",66.02 % of control
same,cell viability,"HRG 1.25 nM, T-DM1 0.37037 μg/ml, with MM-111 1 μM, 72 h",43.031 % of control
same,cell viability,"HRG 1.25 nM, T-DM1 0.37037 μg/ml, without MM-111, 72 h",69.3 % of control
same,cell viability,"HRG 1.25 nM, T-DM1 1.111111 μg/ml, with MM-111 1 μM, 72 h",40.2014 % of control
same,cell viability,"HRG 1.25 nM, T-DM1 1.111111 μg/ml, without MM-111, 72 h",69.4 % of control
same,cell viability,"HRG 1.25 nM, T-DM1 3.333333 μg/ml, with MM-111 1 μM, 72 h",37.53 % of control
same,cell viability,"HRG 1.25 nM, T-DM1 3.333333 μg/ml, without MM-111, 72 h",58.9 % of control
same,cell viability,"HRG 1.25 nM, T-DM1 10 μg/ml, with MM-111 1 μM, 72 h",35.5527 % of control
same,cell viability,"HRG 1.25 nM, T-DM1 10 μg/ml, without MM-111, 72 h",68.77 % of control
same,cell viability,"HRG 2.5 nM, T-DM1 0.001524 μg/ml, with MM-111 1 μM, 72 h",117.2117 % of control
same,cell viability,"HRG 2.5 nM, T-DM1 0.001524 μg/ml, without MM-111, 72 h",90.8 % of control
same,cell viability,"HRG 2.5 nM, T-DM1 0.004572 μg/ml, with MM-111 1 μM, 72 h",99.28 % of control
same,cell viability,"HRG 2.5 nM, T-DM1 0.004572 μg/ml, without MM-111, 72 h",84.1 % of control
same,cell viability,"HRG 2.5 nM, T-DM1 0.013717 μg/ml, with MM-111 1 μM, 72 h",90.13 % of control
same,cell viability,"HRG 2.5 nM, T-DM1 0.013717 μg/ml, without MM-111, 72 h",83.77 % of control
same,cell viability,"HRG 2.5 nM, T-DM1 0.041152 μg/ml, with MM-111 1 μM, 72 h",63.71 % of control
same,cell viability,"HRG 2.5 nM, T-DM1 0.041152 μg/ml, without MM-111, 72 h",69.34 % of control
same,cell viability,"HRG 2.5 nM, T-DM1 0.123457 μg/ml, with MM-111 1 μM, 72 h",52.76 % of control
same,cell viability,"HRG 2.5 nM, T-DM1 0.123457 μg/ml, without MM-111, 72 h",74.67 % of control
same,cell viability,"HRG 2.5 nM, T-DM1 0.37037 μg/ml, with MM-111 1 μM, 72 h",43.73 % of control
same,cell viability,"HRG 2.5 nM, T-DM1 0.37037 μg/ml, without MM-111, 72 h",67.24 % of control
same,cell viability,"HRG 2.5 nM, T-DM1 1.111111 μg/ml, with MM-111 1 μM, 72 h",41.27 % of control
same,cell viability,"HRG 2.5 nM, T-DM1 1.111111 μg/ml, without MM-111, 72 h",72.16 % of control
same,cell viability,"HRG 2.5 nM, T-DM1 3.333333 μg/ml, with MM-111 1 μM, 72 h",36.42 % of control
same,cell viability,"HRG 2.5 nM, T-DM1 3.333333 μg/ml, without MM-111, 72 h",66.06 % of control
same,cell viability,"HRG 2.5 nM, T-DM1 10 μg/ml, with MM-111 1 μM, 72 h",38.53 % of control
same,cell viability,"HRG 2.5 nM, T-DM1 10 μg/ml, without MM-111, 72 h",65.69 % of control
same,cell viability,"HRG 5 nM, T-DM1 0.001524 μg/ml, with MM-111 1 μM, 72 h",128.6171 % of control
same,cell viability,"HRG 5 nM, T-DM1 0.001524 μg/ml, without MM-111, 72 h",94.98 % of control
same,cell viability,"HRG 5 nM, T-DM1 0.004572 μg/ml, with MM-111 1 μM, 72 h",118.6616 % of control
same,cell viability,"HRG 5 nM, T-DM1 0.004572 μg/ml, without MM-111, 72 h",89.1 % of control
same,cell viability,"HRG 5 nM, T-DM1 0.013717 μg/ml, with MM-111 1 μM, 72 h",95.05 % of control
same,cell viability,"HRG 5 nM, T-DM1 0.013717 μg/ml, without MM-111, 72 h",80.42 % of control
same,cell viability,"HRG 5 nM, T-DM1 0.041152 μg/ml, with MM-111 1 μM, 72 h",70.74 % of control
same,cell viability,"HRG 5 nM, T-DM1 0.041152 μg/ml, without MM-111, 72 h",71.02 % of control
same,cell viability,"HRG 5 nM, T-DM1 0.123457 μg/ml, with MM-111 1 μM, 72 h",51.52 % of control
same,cell viability,"HRG 5 nM, T-DM1 0.123457 μg/ml, without MM-111, 72 h",73.54 % of control
same,cell viability,"HRG 5 nM, T-DM1 0.37037 μg/ml, with MM-111 1 μM, 72 h",43.88 % of control
same,cell viability,"HRG 5 nM, T-DM1 0.37037 μg/ml, without MM-111, 72 h",68.99 % of control
same,cell viability,"HRG 5 nM, T-DM1 1.111111 μg/ml, with MM-111 1 μM, 72 h",43.0434 % of control
same,cell viability,"HRG 5 nM, T-DM1 1.111111 μg/ml, without MM-111, 72 h",75.73 % of control
same,cell viability,"HRG 5 nM, T-DM1 3.333333 μg/ml, with MM-111 1 μM, 72 h",42.54 % of control
same,cell viability,"HRG 5 nM, T-DM1 3.333333 μg/ml, without MM-111, 72 h",64.95 % of control
same,cell viability,"HRG 5 nM, T-DM1 10 μg/ml, with MM-111 1 μM, 72 h",40.95 % of control
same,cell viability,"HRG 5 nM, T-DM1 10 μg/ml, without MM-111, 72 h",63.22 % of control
same,cell viability,"HRG 10 nM, T-DM1 0.001524 μg/ml, with MM-111 1 μM, 72 h",140.3695 % of control
same,cell viability,"HRG 10 nM, T-DM1 0.001524 μg/ml, without MM-111, 72 h",88.14 % of control
same,cell viability,"HRG 10 nM, T-DM1 0.004572 μg/ml, with MM-111 1 μM, 72 h",122.2993 % of control
same,cell viability,"HRG 10 nM, T-DM1 0.004572 μg/ml, without MM-111, 72 h",101.4929 % of control
same,cell viability,"HRG 10 nM, T-DM1 0.013717 μg/ml, with MM-111 1 μM, 72 h",95.17 % of control
same,cell viability,"HRG 10 nM, T-DM1 0.013717 μg/ml, without MM-111, 72 h",80.41 % of control
same,cell viability,"HRG 10 nM, T-DM1 0.041152 μg/ml, with MM-111 1 μM, 72 h",70.82 % of control
same,cell viability,"HRG 10 nM, T-DM1 0.041152 μg/ml, without MM-111, 72 h",69.82 % of control
same,cell viability,"HRG 10 nM, T-DM1 0.123457 μg/ml, with MM-111 1 μM, 72 h",52.82 % of control
same,cell viability,"HRG 10 nM, T-DM1 0.123457 μg/ml, without MM-111, 72 h",64.33 % of control
same,cell viability,"HRG 10 nM, T-DM1 0.37037 μg/ml, with MM-111 1 μM, 72 h",47.2081 % of control
same,cell viability,"HRG 10 nM, T-DM1 0.37037 μg/ml, without MM-111, 72 h",61.13 % of control
same,cell viability,"HRG 10 nM, T-DM1 1.111111 μg/ml, with MM-111 1 μM, 72 h",43.46 % of control
same,cell viability,"HRG 10 nM, T-DM1 1.111111 μg/ml, without MM-111, 72 h",62.15 % of control
same,cell viability,"HRG 10 nM, T-DM1 3.333333 μg/ml, with MM-111 1 μM, 72 h",42.6 % of control
same,cell viability,"HRG 10 nM, T-DM1 3.333333 μg/ml, without MM-111, 72 h",59.46 % of control
same,cell viability,"HRG 10 nM, T-DM1 10 μg/ml, with MM-111 1 μM, 72 h",42.13 % of control
same,cell viability,"HRG 10 nM, T-DM1 10 μg/ml, without MM-111, 72 h",68.79 % of control

# — US20150202287A1, “COMBINATION THERAPIES COMPRISING ANTI-ERBB3 AGENTS” (Merrimack Pharmaceuticals, Inc., priority 2012, published 2015)
